# Screening data deposited in PubChem BioAssay by National Center for Advancing Translational Sciences (NCATS).
# Rango-impB inh: inhibitors of Rango-importin beta complex formation; Q14974; Rango CFP/YFP FRET sensor + importin beta, 45 min; Potency, µM (series often up to 92.2 µM), for the others: at the top dose inhibition of complex formation; hit rate 0.031% among 340,000; AID 540263;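 note: potency is the fitted concentration of half-maximal effect; 0% = DMSO wells and 100% = buffer wells lacking importin beta; nearly all actives have a fitted effect of over 15% in size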
#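 FRET biosensor Rango (snurportin 1 IBB between N-terminal EYFP and C-terminal Cerulean), 50 nM in PBS/1 mM DTT/0.02% Tween-20/0.1% BSA, preincubated 5 min RT with compound; 0.125 microM importin beta added, 45 min RT, CFP/YFP FRET ratio read.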
# MmCpn inh: blocks the Methanococcus maripaludis chaperonin Mm-Cpn; purified Mm-Cpn ATPase, ADP Transcreener TR-FRET; Potency, µM (titrated, usually from 76.9 µM), without a hit: at the top dose activity, negative = inhibition, most hits filed as inhibitors; hit rate 0.031% among 330,000; AID 504842; active = well fitted curve in the direction sought with a large enough effect; inconclusive = small, poorly fitted or top-dose-only effect, or another doubt; inactive = no such curve, though single readings can be large; an effect the other way counts as inactive or inconclusive; note: potency is the fitted concentration of half-maximal effect; % is set by controls: 0 for no effect and ±100 for the full control effect; nearly all actives have a fitted effect of over 80% in size
#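 ATPase read-out: TR-FRET ADP immunoassay (anti-ADP Eu cryptate vs ADP-d2), ex 320 nm, em 590/665 nm; signal drops as ADP forms. Enzyme 25 nM, ATP 10 uM, 30 min at 37°C after 10 min compound preincubation.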
# Integrin act MD: activators of alpha7 integrin expression for muscular dystrophy; alpha7betagal myoblasts, beta-gal FDG fluorescence, 48 h; hit rate 0.064% among 350,000; Potency, µM (top dose mostly 38.3 µM), without a hit: top-dose activation, actives largely listed as activators; active = well fitted curve in the direction sought with a large enough effect; inconclusive = small, poorly fitted or top-dose-only effect, or another doubt; inactive = no such curve, though single readings can be large; an effect the other way counts as inactive or inconclusive;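 note: potency is the fitted concentration of half-maximal effect; 100% = response of the positive control SU9516; nearly all actives have a fitted effect of over 60% in size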
#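 alpha7betagal+/- myoblasts (passage 13, 250/well) treated 48 h at 37C with compounds at 1:260 dilution of DMSO stock. Lysed, then beta-galactosidase activity read as FDG fluorescence (ex 480/em 540) after 30 min, with pre-read for autofluorescence.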
# CCT chaperon mod: cytosolic chaperonin activity modulation; purified chaperonin ATPase assay, HTRF ADP detection, 30 min; activity change, % (test concentration not listed), hits read low; hit rate 0.3% among 360,000; AID 651819; in the data active = activity change below about -30%; note: % is set by controls: 0 for no effect and ±100 for the full control effect
#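 TRiC (40 or 20 nM final, by batch activity) in 30 mM Tris pH 7.4, 100 mM KCl, 5 mM MgCl2, 1 mM DTT was treated with compound at 76 uM single dose, then 10 uM ATP, 30 min at 37 °C. ADP was read by HTRF Transcreener.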
# Rango release inh: inhibitors of RanGTP-induced Rango-importin beta complex dissociation | O95149+P62826 | Biochemical FRET Rango-importin beta, RanGTP-induced dissociation | Potency, µM (series often up to 46.1 µM), without a hit: at the highest dose activity change, negative = inhibition | hit rate 0.071% among 340,000 | AID 540253; note: potency is the fitted concentration of half-maximal effect; % of control where 0% means no effect; nearly all actives have a fitted effect of over 45% in size
#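 Two FRET readings bracket the reaction: one 5 min after compound meets Rango–importin beta, another 45 min after RanGTP-RCC1 (0.6 uM Ran, 0.2 uM RCC1, 2 mM GTP) is added. Only the second defines inhibition.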
# An asterisk follows results filed as active; ? = inconclusive; . = no result given; [ ] = remark or other dose. In the library only some 0.51% were active in any assay of this set; here they are far more common. Unless noted, calls come from the whole dose curve.
1) Cc1ccc(C)c(Nc2ncnc(N)c2[N+](=O)[O-])c1
2) Cc1cccnc1Nc1ncnc(N)c1[N+](=O)[O-]
3) CN1CCN(c2ccc(CNC(=O)C3(C)Cc4c(-c5ccc6c(c5)OCO6)ccnc4O3)cc2)CC1 (stereo not drawn)
4) CCOC(=O)N1CCN(C(=O)CNC(=O)c2ccc(Br)o2)CC1
5) O=C(NCC(=O)N1CCCC1)c1ccc(Br)o1

screen / no.,1,2,3,4,5
Rango-impB inh,0.6%,1.4%,.,-0.2%,0.0%
MmCpn inh,0.7%,3.1%,.,-1.8%,-0.5%
Integrin act MD,-10.2%,14.9%,.,38.7%,26.5%
CCT chaperon mod,-40.7*,1.3,-0.8,-53.4*,0.7
Rango release inh,0.5%,22.0%,.,-1.0%,-0.7%

6) COc1ccccc1C(=O)NCCNc1nc2cc(C)cc(C)c2cc1C#N
7) COc1cc(OC)cc(C(=O)NCCNc2nc3cc(C)cc(C)c3cc2C#N)c1
8) CN(CC1CCOCC1)C(=O)CC1C(=O)NCCN1Cc1ccc(Cl)c(F)c1 (stereo not drawn)
9) CC1C(=O)N(Cc2cn(Cc3ccco3)nn2)CCS(=O)(=O)N1Cc1ccc(-c2cccc(N(C)C)c2)cc1 (stereo not drawn)
10) O=C(c1cccc(Br)c1)N1CCN(c2ccc(N3CCOCC3)nn2)CC1

screen / no.,6,7,8,9,10
Rango-impB inh,?,?,3.4%,.,-4.9%
MmCpn inh,-20.1%,0.0%,2.7%,.,-0.1%
Integrin act MD,-7.2%,-14.2%,6.7%,24.9%,-0.4%
CCT chaperon mod,2.0,-2.4,-42.1*,-2.4,-1.3
Rango release inh,11.6µM*,?,17.7%,.,0.6%

11) O=C(c1cncc(Br)c1)N1CCN(c2ccc(N3CCOCC3)nn2)CC1
12) Cc1cccc(Cn2c(C)nc3ccc([N+](=O)[O-])cc3c2=O)c1
13) Cc1ccccc1Cn1c(C)nc2ccc([N+](=O)[O-])cc2c1=O
14) COCCCN1C(=O)C(CC(=O)NCC2CCCCC2)CC(C(=O)N(C(C)C)C(C)C)=C1C (stereo not drawn)
15) COc1cc(C=O)ccc1OS(=O)(=O)c1ccccc1[N+](=O)[O-]

screen / no.,11,12,13,14,15
Rango-impB inh,?,4.5%,58µM*,.,0.4%
MmCpn inh,-1.0%,0.3%,-0.8%,.,-1.1%
Integrin act MD,10.0%,0.1%,-38.5%,.,-14.4%
CCT chaperon mod,-37.4*,-1.2,-0.7,-0.8,-42.4*
Rango release inh,0.8%,16.8%,0.5%,.,14.8%

16) CCNC(=O)N1c2ccc(OCC)cc2C(C)=CC1(C)C
17) O=C(NC(=S)NCCC1=CCCCC1)c1ccc(Br)o1
18) COc1ccccc1OCCn1nnc2ccccc21
19) CCCCOCCCNC(=O)C[C@@H]1C[C@@]2(C(=O)OCC)CCCC=C2N(Cc2ccc(Cl)cc2Cl)C1=O
20) Cc1cc(N2CCCC2)nc2ccc(NC(=S)NCCCN3CCC(C)CC3)cc12

screen / no.,16,17,18,19,20
Rango-impB inh,?,-0.8%,-3.6%,.,2.5%
MmCpn inh,-0.9%,0.2%,1.4%,.,-0.4%
Integrin act MD,-29.9%,7.08µM*,14.9%,.,-65.7%
CCT chaperon mod,-0.7,0.1,-55.1*,-1.2,-0.5
Rango release inh,2.06µM*,0.4%,-7.6%,.,14.6µM*

21) Cc1ccc(C(=O)N/C(=C\c2ccc(-c3cc(Cl)ccc3Cl)o2)C(=O)NCc2cccnc2)cc1
22) CCOC(=O)C1(C)CCN1C(=O)c1ccc2c(c1)CCO2 (stereo not drawn)
23) COc1ccc(-c2c(-c3ccccc3OC)sc3ccccc23)cc1C=O
24) COc1ccccc1-c1sc2ccccc2c1-c1ccc2c(c1)OCCO2
25) COc1ccc(-c2c(-c3ccccc3OC)sc3ccccc23)cc1OC

screen / no.,21,22,23,24,25
Rango-impB inh,?,.,2.8%,1.0%,3.4%
MmCpn inh,-4.9%,.,?,20µM*,35.5µM*
Integrin act MD,32.2%,.,-6.5%,-4.3%,9.9%
CCT chaperon mod,-4.7,0.1,-3.8,-6.1,1.6
Rango release inh,10.3µM*,.,-8.9%,8.2%,2.2%

26) COc1ccccc1-c1sc2ccccc2c1-c1ccccc1OC
27) COc1ccc(CNC(=O)COC(=O)c2c(NC(C)=O)sc(C)c2C)cc1OC
28) COc1cc2c(cc1OC)C1O[C@](c3ccsc3)(C2)OC2=C1C(=O)OC1(CCCCC1)C2
29) CCCCNC(=O)CSc1nnc(Cc2ccc(Cl)c(Cl)c2)c(=O)[nH]1
30) Cc1ccccc1NS(=O)(=O)c1ccc2[nH]cc(C(=O)NC3CCCCC3)c(=O)c2c1

screen / no.,26,27,28,29,30
Rango-impB inh,-2.9%,.,.,0.2%,.
MmCpn inh,56.2µM*,.,-2.1%[15.4 µM],-0.8%,-1.1%
Integrin act MD,0.0%,-6.2%,.,1.41µM*,.
CCT chaperon mod,-9.5,1.3,.,-1.0,.
Rango release inh,-13.5%,.,.,-4.1%,.

31) CC1CCN(S(=O)(=O)c2ccc(Cl)cc2)CC1
32) CC1CCN(S(=O)(=O)c2ccc(C(C)C)cc2)CC1
33) Cc1cccn2c(=O)cc(CSc3nnc(NC(=O)COc4ccccc4)s3)nc12
34) COc1cc(CNCc2ccc(C(=O)O)cc2)ccc1OCc1ccc(F)cc1
35) CCCCC1CCC(C(=O)NC2CCS(=O)(=O)C2)CC1 (stereo not drawn)

screen / no.,31,32,33,34,35
Rango-impB inh,0.3%,1.3%,.,1.9%,6.9%
MmCpn inh,0.6%,1.7%,0.7%,0.3%,0.7%
Integrin act MD,-1.6%,-26.2%,.,4.47µM*,3.2%
CCT chaperon mod,-42.7*,-3.1,.,-2.0,-45.7*
Rango release inh,-9.0%,0.8%,.,1.6%,15.0%

# Quoted from above: entries 33 to 35
33) Cc1cccn2c(=O)cc(CSc3nnc(NC(=O)COc4ccccc4)s3)nc12
34) COc1cc(CNCc2ccc(C(=O)O)cc2)ccc1OCc1ccc(F)cc1
35) CCCCC1CCC(C(=O)NC2CCS(=O)(=O)C2)CC1 (stereo not drawn)

screen / no.,33,34,35
Rango-impB inh,.,1.9%,6.9%
MmCpn inh,0.7%,0.3%,0.7%
Integrin act MD,.,4.47µM*,3.2%
CCT chaperon mod,.,-2.0,-45.7*
Rango release inh,.,1.6%,15.0%

# Remaining list, next part:
36) O=C(NC1CCS(=O)(=O)C1)C1CCCC1 (stereo not drawn)
37) CCN1C(=NCCCCO)N[C@@H](c2ccccc2)C(C(=O)OC)=C1C
38) Cc1ccc(NC(=O)N2CCCC(C(=O)O)C2)cc1 (stereo not drawn)
39) O=C(COC(=O)Cc1c[nH]c2ccccc12)Nc1cccc(Br)c1
40) O=C(c1ccc(Cl)cc1Cl)N1CCN(c2ccccn2)CC1

screen / no.,36,37,38,39,40
Rango-impB inh,-2.7%,.,-3.6%,.,-3.0%
MmCpn inh,-2.6%,2.0%,-0.2%,.,1.4%
Integrin act MD,-14.5%,.,-21.1%,-10.7%,0.4%
CCT chaperon mod,-1.1,.,-43.2*,-1.7,-33.0*
Rango release inh,4.3%,.,-10.4%,.,-2.5%

41) CN(C)CCCN(Cc1ccccc1)C(=S)Nc1ccc(OC(F)F)cc1
42) FC(F)(F)c1ccc(-c2cccc3c2C2CC3CCN2Cc2ccc3c(c2)OCO3)cc1 (stereo not drawn)
43) Cc1cc(C)cc(C(=O)NCCn2cc(SCC(=O)N3CCOCC3)c3ccccc32)c1
44) Oc1ccc(CNCc2ccc3c(c2)OCO3)c2cccnc12
45) Cc1ccc(Cl)cc1N1C(=O)CC(Sc2ccccc2N)C1=O (stereo not drawn)

screen / no.,41,42,43,44,45
Rango-impB inh,4.6%,.,-0.5%,.,.
MmCpn inh,-0.9%,.,1.5%,2.3%,.
Integrin act MD,-12.5%,.,-0.3%,.,-27.3%
CCT chaperon mod,-53.9*,0.1,-31.6*,.,-32.6*
Rango release inh,-0.3%,.,-6.3%,.,.

46) Nc1ccccc1SC1CC(=O)N(c2ccc(Cl)c(Cl)c2)C1=O (stereo not drawn)
47) CN1CCS/C1=C/C=C1\SC(=S)N(CC(=O)O)C1=O
48) CCCCN1C(=O)/C(=C/C=C2\SCCN2C)SC1=S
49) CN1CCS/C1=C/C=C1/SC(=S)N(Cc2ccccc2)C1=O
50) CC(=O)Nc1cc2c(s1)c1cnn(Cc3ccccc3F)c(=O)c1n2C
51) COC(=O)c1ccccc1NC(=O)c1noc2c1CC(C(C)(C)C)CC2 (stereo not drawn)
52) CCNC(=O)CSc1nc(-c2ccc(F)cc2)cs1

screen / no.,46,47,48,49,50,51,52
Rango-impB inh,0.2%,58µM*,51.7µM*,?,.,-2.2%,-1.3%
MmCpn inh,-0.2%,-6.9%,-2.2%,-4.0%,1.4%,0.9%,-3.2%
Integrin act MD,-11.2%,-1.0%,-32.2%,-43.0%,.,16.4%[7.66 µM],5.01µM*
CCT chaperon mod,0.5,1.5,0.3,-0.8,.,-81.2*,0.8
Rango release inh,-0.1%,?,-6.1%,-8.4%,.,-2.1%,16.7%
